A short description of series [1]: Analytical HIC, relative hydrophobicity of ADCs. The series is classed as physicochemical. To be noted: vc-seco-DUBA ADCs; (RTDAR2-RTDAR0)/(RTDAR2,wt-ADC-RTDAR0,wt-ADC); double mutants are DAR4 species (RT wt DAR4 = 12.2). On the procedure: For analytical HIC, 5-10 μL of sample (1 mg/ml) was injected onto a TSKgel Butyl-NPR column (4.6 mm ID×3.5 cm L, Tosoh Bioscience, cat. nr. 14947). The elution method consisted of a linear gradient from 100% Buffer A (25 mM sodium phosphate, 1.5 M ammonium sulphate, pH 6.95) to 100% of Buffer B (25 mM sodium phosphate, pH 6.95, 20% isopropanol) at 0.4 ml/min over 20 minutes. A Waters Acquity H-Class UPLC system equipped with PDA-detector and Empower software was used. Absorbance was measured at 214 nm and the retention time of ADCs was determined.
As made apparent by analytical HIC, there were differences in the retention times (RTs) for the DAR2 species of the different cysteine engineered ADCs versus the wt conjugates (Tables 1, 2 and 3). […] To further quantify this effect, the term relative hydrophobicity is introduced, which is defined as: (RTDAR2−RTDAR0)/(RTDAR2,wt-ADC−RTDAR0,wt-ADC). In essence, the relative hydrophobicity is a measure that allows a facile comparison between the hydrophobicity of the engineered ADCs versus the wt-conjugated counterparts based on HIC data.

Series [2] is described as follows: High molecular weight species (aggregates) of ADCs. The series is classed as physicochemical. To be noted: vc-seco-DUBA ADCs, amount of aggregates formed.
For the next series, the system named is LNCaP-C4.2. Description: Enzymatic cleavage by cathepsin B, cytotoxicity of released drug on LNCaP-C4.2 as 5T4-negative line. Format: cell-based, human. To be noted: 4 hours pre-incubation with cathepsin B, LNCaP-C4.2 used as the 5T4-negative cell line. On the procedure: The valine-citrulline moiety present in the linker of the ADCs with vc-seco-DUBA (SYD980) and vc-MMAE can be cleaved by cysteine proteases, such as cathepsin B, which results in subsequent intracellular release of the (seco-)DUBA or MMAE drug inside the tumour lysosomes or extracellular in the tumour microenvironment. To assess the sensitivity towards cathepsin B, the ADCs were treated for 2 minutes and 4 hours with activated cathepsin B (Calbiochem). The cytotoxic activity of the released drug from the anti-PSMA ADCs was measured on PSMA-negative DU-145 cells. The cytotoxic activity of the released drug from the anti-5T4 ADCs was measured on 5T4-negative SK-MEL-30 cells. During the pre-incubation step at 37° C., 1 mg/ml of each ADC was mixed with 5 μg/ml cathepsin B (0.04 units/well) in 0.1M Na-acetate pH 5 containing 4 mM DTT. As a control, 1 mg/ml of each ADC was directly diluted in culture medium (RPMI 1640, 10% qualified FBS). Serial dilutions were made from these ADC solutions in culture medium. To measure release of the respective free toxins DUBA or MMAE, PSMA-negative DU-145 cells (1,000 cells/well) and 5T4-negative SK-MEL-30 cells (2,000 cells/well) were cultured with the ADCs for 6 days, and the cell viability was measured after 6 days using the CellTiter-Glo™ (CTG) assay kit.

The values below come from patent US11104968B2, “Site-specific conjugation of linker drugs to antibodies and resulting ADCS” (Byondis B.V., priority 2014, dated 2021).

In general, IC50 refers to the point on the concentration scale where inhibition reaches its midpoint.

B1: H8-wt: non-engineered anti-5T4 wt H8 antibody conjugated to vc-seco-DUBA (conjugate)
heavy: QVQLVQSGAEVKKPGASVKVSCKASGYSFTGYYMHWVKQSPGQGLEWIGRINPNNGVTLYNQKFKDRVTMTRDTSISTAYMELSRLRSDDTAVYYCARSTMITNYVMDYWGQGTLVTVSSASTKGPSVFPLAPSSKSTSGGTAALGCLVKDYFPEPVTVSWNSGALTSGVHTFPAVLQSSGLYSLSSVVTVPSSSLGTQTYICNVNHKPSNTKVDKKV[human IgG1 Fc not shown]
light: DIVMTQSPDSLAVSLGERATINCKASQSVSNDVAWYQQKPGQSPKLLISYTSSRYAGVPDRFSGSGSGTDFTLTISSLQAEDVAVYFCQQDYNSPPTFGGGTKLEIKRTVAAPSVFIFPPSDEQLKSGTASVVCLLNNFYPREAKVQWKVDNALQSGNSQESVTEQDSKDSTYSLSSTLTLSKADYEKHKVYACEVTHQGLSSPVTKSFNRGEC
For B1, in series [1], the Relative hydrophobicity turned out to be 1.0. Moreover, in series [2], the “HMW (%)” value turned out to be 4.4%. Further, in the series with LNCaP-C4.2, the “% efficacy, free drug cleaved by cathepsin B” value is given as 98%. Also, in the series with LNCaP-C4.2 (read-out: IC50 (nM), free drug cleaved by cathepsin B), the IC50 was 0.35 nM.
